The source of these data is ChEMBL document CHEMBL1131296 (J Med Chem, 1998).

For the experiment, the target named is T1, Alpha-1A adrenergic receptor (Homo sapiens, UniProt P35348).
T1 sequence (P35348 whole entry): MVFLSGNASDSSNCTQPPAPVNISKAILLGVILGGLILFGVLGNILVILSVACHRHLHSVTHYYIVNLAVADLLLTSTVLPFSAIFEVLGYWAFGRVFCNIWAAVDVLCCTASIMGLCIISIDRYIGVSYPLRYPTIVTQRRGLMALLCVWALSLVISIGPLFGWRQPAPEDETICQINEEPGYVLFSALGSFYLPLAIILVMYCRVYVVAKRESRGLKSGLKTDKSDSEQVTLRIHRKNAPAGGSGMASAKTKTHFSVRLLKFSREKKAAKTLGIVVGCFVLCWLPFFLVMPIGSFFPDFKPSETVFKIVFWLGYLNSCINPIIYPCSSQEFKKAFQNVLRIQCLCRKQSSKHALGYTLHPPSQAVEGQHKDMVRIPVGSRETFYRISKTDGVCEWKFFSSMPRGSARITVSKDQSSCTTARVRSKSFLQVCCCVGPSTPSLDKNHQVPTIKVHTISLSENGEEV
Kind of experiment: Binding affinity at human cloned Alpha-1A adrenergic receptor in chinese hamster ovary cells by [3H]-prazosin displacement. The format is cell-based, CHO.

Take `COc1ccccc1N1CCN(CCN2C(=O)CC3(CCCC3)CC2=O)CC1` [BMY-7378]: the Ki is 437 nM.

For orientation: Ki means the dissociation constant of the complex between target and ligand, obtained from inhibition or displacement. Lower therefore signals higher affinity.
